# Key:
# MxA gene = MxA gene induction assay (ICLA); assay type: cell-based, human; settings: product label specific activity of reconstituted IFN-β-1b/Betaseron® as IFN standard; FIG. 2A
# From the text: Based on the specific induction of the MxA gene by type I IFNs in cultured human cells (Von Wussow, P. et al. (1990) Eur. J. Immunol. 20:2015-2019; and Simon, A. et al. (1991) J. Interferon Res. 11:215-219), an immunochemiluminometric (“ICLA”) assay was developed by Files, J. G. et al. (1998) J. Interferon Res. 18:1019-1024. The ICLA assay, which is based on the procedure of Oh, S. K. et al. (1994) J. Immunol. Meth. 176:79-91, detects MXa protein in cell lysates using two non-competing anti-MxA monoclonal antibodies, one of which is conjugated with acridinium ester, which is detected in a luminometer. The MxA gene induction ICLA assay procedure used herein is described in detail in Files, J. G. et al. (1998) supra.
# [1] = IFN-β specific activity, assay not stated
# [2] = relative to IFN-β-1b; literature; cited from earlier work
substance,measurement,setting,value
"IFN-β-1a: recombinant human IFN-β expressed in CHO cells, 166 amino acids, N-linked glycosylated (SEQ ID NO: 1) [reference compound]",specific activity,MxA gene,1.45 to 3.22×10^8 IU/mg
same,specific activity,[1]; assay not stated,2 to 3×10^8 IU/mg
same,"specific activity, fold greater as compared to IFN-β-1b",[1]; summary of Example 1,~10 fold
same,"specific activity, fold higher than IFN-β-1b",[2],approximately 10 fold
